# Assay results reported in patent US20260384400A1, “IMIDAZOLYL BINDS WITH DINITROPHENYL DERIVATIVES AND USE THEREOF” (published 2026).
# Tests used:
# [1] = Mouse pharmacokinetic study, plasma concentration (Cmax of plasma DNP) after oral dosing; conditions: p.o.; for Cmax of plasma DNP after dosing: analyte: plasma DNP; for AUClast: plasma; for Cmax: plasma (Table 3, The PK results)
# [2] = Thermodynamic solubility determination; conditions: 37 °C, 24 hours
smiles,measurement,setting,value
COCCn1cc(COc2ccc([N+](=O)[O-])cc2[N+](=O)[O-])nc1[N+](=O)[O-],Cmax of plasma DNP after dosing,[1]; 5 mg/kg,2010 ng/mL
same,AUClast,[1]; 5 mg/kg,8124 ng·h/mL
same,Cmax,[1]; 5 mg/kg,2010 ng/mL
same,Cmax of plasma DNP after dosing,[1]; 10 mg/kg,2477 ng/mL
same,AUClast,[1]; 10 mg/kg,10598 ng.h/m L
same,Cmax,[1]; 10 mg/kg,2477 ng/mL
same,Cmax of plasma DNP after dosing,[1]; 20 mg/kg,4870 ng/mL
same,AUClast,[1]; 20 mg/kg,26493 ng·h/mL
same,Cmax,[1]; 20 mg/kg,4870 ng/mL
same,Cmax of plasma DNP after dosing,[1]; 30 mg/kg,5880 ng/mL
same,Cmax of plasma DNP after dosing,[1]; 50 mg/kg,9045 ng/mL
same,Cmax of plasma DNP after dosing,[1]; 100 mg/kg,19533 ng/mL
same,Cmax of plasma DNP after dosing,[1]; 600 mg/kg,11090 ng/mL
same,Cmax of plasma DNP after dosing,[1]; 1000 mg/kg,22321 ng/mL
same,Cmax of plasma DNP after dosing,[1]; 2000 mg/kg,14493 ng/mL
same,Cmax compared with Compound HU6,"[1]; at each dose, vs Compound HU6",lower than Compound HU6 at each dose
same,exposure level compared with Compound HU6,"[1]; all the dose range, vs Compound HU6",significantly lower than that of Compound HU6
same,exposure level compared with oral DNP directly,[1]; vs DNP,lower oral DNP directly
same,Solubility,[2]; FaSSGF (pH 1.6),6.16 µg/mL
same,Solubility,[2]; FaSSIF (pH 6.5),5.72 µg/mL
